The list is not random: actives were taken first. Their share in the collection is about 2.1%.
A549 viability = A549 cytotoxicity, counter-screen for Nrf2 inhibitors | A549 ARE-Fluc cells, CellTiter-Fluor viability, 18-24 h | Potency, µM (highest dose often 46 µM), without a hit: at the top dose activity change, negative = cytotoxicity, usual class: inhibitors | 390,000 tested, 0.16% active | AID 504648; note: potency is the fitted concentration of half-maximal effect; % is set by controls: 0 for no effect and ±100 for the full control effect
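A549 ARE-Fluc cells in 5% FBS OPTI-MEM, 5000 cells/well, rested 2 h then exposed to compounds in concentration-response for 18-24 h at 37 °C. Viability by CellTiter-Fluor fluorescence (Ex 405/Em 525) after 30 min; luciferase luminescence (BugLite, 15 min, RT) read afterwards.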
Glioma ERSR ind = induces the endoplasmic reticulum stress response in human glioma cells; U87-MG GRP78 promoter luciferase reporter, 16 h; 420,000 tested, 0.02% active; AID 602332; Potency, µM, for inactives: top-dose activation, actives largely listed as activators; note: potency is the fitted concentration of half-maximal effect; series mostly up to about 76 µM; % of control where 0% means no effect; nearly all actives have a fitted effect of over 35% in size
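Stably transfected U87-MG human glioma cells carrying a GRP78-based luminescent sensor were seeded at 1000 cells/well, pin-dosed with compounds and incubated 16 h. Luciferase reagent was then added, and end-point luminescence was read after 10 min at room temperature.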
Nrf2 inh = inhibitors of Nrf2 signaling. 360,000 tested, 2.1% active. A549 ARE-Fluc reporter, luciferase luminescence, 18-24 h. Potency, µM (top dose mostly 46 µM), without a hit: at the top dose activity change, negative = inhibition, hits mostly inhibitors; note: potency is the fitted concentration of half-maximal effect; % is set by controls: 0 for no effect and ±100 for the full control effect; nearly all actives have a fitted effect of over 60% in size
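Nrf2 function is reported as luminescence of an ARE-controlled luciferase in A549 cells. Compounds were tested at several concentrations, and a CellTiter-Fluor read on the same wells flagged cytotoxicity.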
Nrf2 activator = Nrf2 pathway activation; AREc32 ARE-luciferase reporter (MCF7-derived line), luminescence, 24 h; Potency, µM (titrated, usually from 46.1 µM), for the others: at the highest dose activation, hits mostly activators; 410,000 tested, 0.31% active; note: potency is the fitted concentration of half-maximal effect; % of control where 0% means no effect; nearly all actives have a fitted effect of over 65% in size
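Cells of the AREc32 ARE-luciferase line are plated in OPTI-MEM containing 5% FBS and left overnight at 37 deg C. Compounds are pinned in, incubation continues 24 hr, and firefly luciferase signal is then measured.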
miR-21 reporter = raises the signal of a miR-21 reporter | Potency, µM (doses to about 38.3 µM), for inactives: top-dose reporter change, positive = more light | HeLa miR-21 FLuc reporter, luciferase, 48 h | AID 2288 | 340,000 tested, under 10 active; active = well fitted rising curve with a large enough effect; inconclusive = small, poorly fitted or top-dose-only effect; inactive = no such curve, though single readings can be large or run the other way;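 also: % of control where 0% means no effect; miR-21 action dims this reporter so a rising signal means less miR-21 action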
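Luminescence from a firefly luciferase reporter carrying a miR-21 binding site downstream, stably expressed under a CMV promoter in HeLa cells that make miR-21 endogenously, reports miRNA modulation after 48 h compound exposure up to approximately 40uM final.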
TSG101-PTAP inh = blocks PTAP/TSG101 interaction to inhibit HIV-1 budding; Q99816; Potency, µM (titrated, usually from 115 µM), without a hit: at the highest dose activity change, negative = inhibition, actives largely listed as inhibitors; Fluorescence polarization, FITC-PTAP peptide / Tsg101 binding; AID 493005; 340,000 tested, under 10 active; active = well fitted inhibition curve with a large enough effect in the main read-out, with a control signal flat, not every such curve was filed as active; inconclusive = small, poorly fitted or top-dose-only effect, or effect the other way, or a change in a side signal; inactive = no such curve, though single readings can be large or run the other way; note: potency is the fitted concentration of half-maximal effect; % of control where 0% means no effect
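Steps: Tsg101 binding domain dispensed (10 uM final), compounds pinned in DMSO, FITC-labeled PTAP-motif peptide added (50 nM final); after 20 min binding at room temperature, polarization measured.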
Numbers without * were called inactive. Unless noted, calls come from the whole dose curve; as a rule, active = well fitted curve in the direction sought with a large enough effect; inconclusive = small, poorly fitted or top-dose-only effect, or another doubt; inactive = no such curve, though single readings can be large; an effect the other way counts as inactive or inconclusive.

Cc1nc2ccccn2c1C(=O)NNS(=O)(=O)c1ccc(C(C)(C)C)cc1 was read as A549 viability -2%, Glioma ERSR ind -3%, Nrf2 inh 9.2µM*, Nrf2 activator -1%, miR-21 reporter 23% and TSG101-PTAP inh -5%.
O=C(Nc1cc(F)ccc1F)c1cnn2c1NC(=C1CC1)C=C2C(F)F was read as Glioma ERSR ind -3%.
`Cc1ccc(C(=O)C[n+]2cccc3cccc(O)c32)cc1` gave Glioma ERSR ind -4%.
`COc1ccc(C(=O)c2cc([N+](=O)[O-])ccc2N2CCCC2)cc1` gave A549 viability inconclusive, Glioma ERSR ind -3%, Nrf2 inh inconclusive, Nrf2 activator 0%, miR-21 reporter 21% and TSG101-PTAP inh 0%.
Screening COc1ccc(C(=O)c2cc([N+](=O)[O-])ccc2N2CCN(C)CC2)cc1 returned A549 viability 15µM*, Glioma ERSR ind -4%, Nrf2 inh 10%, Nrf2 activator 0%, miR-21 reporter 16% and TSG101-PTAP inh -5%.
Screening Nc1cccc2cccnc12 returned Glioma ERSR ind -3%.
For Cc1nnc(NC(=O)C2CCN(S(=O)(=O)c3cc([N+](=O)[O-])ccc3Cl)CC2)o1 the results were A549 viability 1%, Glioma ERSR ind -3%, Nrf2 inh -5%, Nrf2 activator 19% and TSG101-PTAP inh 2%.
Cc1cccc2sc(NC(=O)C3CCN(S(=O)(=O)c4cc([N+](=O)[O-])ccc4Cl)CC3)nc12 was read as A549 viability inconclusive, Glioma ERSR ind -5%, Nrf2 inh 12µM*, Nrf2 activator 9%, miR-21 reporter 10% and TSG101-PTAP inh -2%.
`COc1ccc2nc(NC(=O)C3CCN(S(=O)(=O)c4cccc5nsnc45)CC3)sc2c1` gave A549 viability -20%, Glioma ERSR ind -10%, Nrf2 inh 16µM*, Nrf2 activator 0%, miR-21 reporter inconclusive and TSG101-PTAP inh -6%.
CN(C)CC(C)(O)c1ccc2c(c1)CN(Cc1cccn1-c1cccnc1)CCO2 (stereo not given) was read as Glioma ERSR ind 0%.
`C(=C1NCCN1)c1cccc2ccccc12` gave Glioma ERSR ind -3%.
Screening CCC1CN(CCNC(=O)c2scc3c2OCCO3)Cc2cc(OC)ccc2O1 (stereo not given) returned Glioma ERSR ind -6%.
Screening CSCC[C@H](NC(=O)[C@@H](Cc1ccc(O[S+](=O)([O-])O)cc1)NC(=O)[C@H](N)CC(=O)O)C(=O)NCC(=O)N[C@@H](Cc1c[nH]c2ccccc12)C(=O)N[C@H](CCSC)C(=O)N[C@H](CC(=O)O)C(=O)N[C@@H](Cc1ccccc1)C(N)=O returned Glioma ERSR ind -4%.
Screening Cc1cc(C)c(NC(=O)c2ccc(CN3CCc4ccccc4C3)cc2)c(C)c1 returned A549 viability inconclusive, Glioma ERSR ind -3%, Nrf2 inh 23µM*, Nrf2 activator 3%, miR-21 reporter 15% and TSG101-PTAP inh 0%.
For CCOC(=O)c1ccc(NC(=O)CSc2nc(=O)n(CCN3CCOCC3)c3c2CCC3)cc1 the results were A549 viability 0%, Glioma ERSR ind -5%, Nrf2 inh 18µM*, Nrf2 activator 4% and TSG101-PTAP inh 0%.
For CCOC(=O)c1ccc(NC(=O)c2ccc(CN3CCOCC3)cc2)cc1 the results were A549 viability inconclusive, Glioma ERSR ind -2%, Nrf2 inh 5.2µM*, Nrf2 activator 4%, miR-21 reporter 4% and TSG101-PTAP inh -2%.
CCOC(=O)c1ccc(NC(=O)c2ccc(CN3CCc4ccccc4C3)cc2)cc1 was read as A549 viability inconclusive, Glioma ERSR ind -4%, Nrf2 inh 23µM*, Nrf2 activator 0%, miR-21 reporter 15% and TSG101-PTAP inh -1%.
`CC(=O)c1ccc(NC(=O)CSc2nc(=O)n(CCN3CCOCC3)c3c2CCC3)cc1` gave A549 viability 1%, Glioma ERSR ind -2%, Nrf2 inh -1%, Nrf2 activator 3% and TSG101-PTAP inh -1%.
Screening COc1ccc(F)c(CN2CCOc3ccc(CN4CCC(O)(c5cccnc5)CC4)cc3C2)c1 returned Glioma ERSR ind -5%.
For COc1ccc(OC)c(CNC(=O)CCCn2ccc3cc(S(=O)(=O)N4CCCC4)ccc32)c1 the results were A549 viability inconclusive, Glioma ERSR ind -5%, Nrf2 inh 15µM*, Nrf2 activator 1%, miR-21 reporter 22% and TSG101-PTAP inh -2%.
Screening COc1ccc(OC)c(CC(=O)Nc2cc(S(=O)(=O)N3CCCCC3)ccc2C)c1 returned A549 viability -17%, Glioma ERSR ind -2%, Nrf2 inh 21µM*, Nrf2 activator 0% and TSG101-PTAP inh -2%.
Screening COc1ccc(S(=O)(=O)N2CCCCC2)cc1NC(=O)CNc1ccccc1C(C)=O returned A549 viability 1%, Glioma ERSR ind 0%, Nrf2 inh inconclusive, Nrf2 activator 0% and TSG101-PTAP inh -6%.
`COc1ccc(S(=O)(=O)N2CCCCC2)cc1NCC(=O)Nc1ccc(C)cc1` gave A549 viability -9%, Glioma ERSR ind -2%, Nrf2 inh 16µM*, Nrf2 activator 0%, miR-21 reporter 22% and TSG101-PTAP inh -3%.
Screening COc1ccc(NC(=O)CCOc2ccccc2F)cc1S(=O)(=O)N1CCCCC1 returned A549 viability -23%, Glioma ERSR ind -3%, Nrf2 inh 21µM*, Nrf2 activator 0% and TSG101-PTAP inh -1%.
For COc1ccc(S(=O)(=O)N2CCCCC2)cc1NC(=O)c1[nH]c(C)c(C(C)=O)c1C the results were A549 viability -1%, Glioma ERSR ind -1%, Nrf2 inh 18µM*, Nrf2 activator 11% and TSG101-PTAP inh -7%.
For CCc1ccc(CNC(=O)Cn2ccc3cc(S(=O)(=O)N4CCCCCC4)ccc32)cc1 the results were A549 viability -13%, Glioma ERSR ind -6%, Nrf2 inh -26%, Nrf2 activator 6% and miR-21 reporter 0%.
`COc1ccc(NC(=O)CN2CCCN(S(=O)(=O)c3ccc(F)cc3)CC2)c(OC)c1` gave A549 viability -4%, Glioma ERSR ind -1%, Nrf2 inh inconclusive, Nrf2 activator -1%, miR-21 reporter 1% and TSG101-PTAP inh -8%.
`Cc1ccc(CNC(=O)Cn2ccc3cc(S(=O)(=O)N4CCCCCC4)ccc32)cc1` gave A549 viability inconclusive, Glioma ERSR ind 0%, Nrf2 inh 15µM*, Nrf2 activator 1%, miR-21 reporter 8% and TSG101-PTAP inh -2%.

Quoted from above, four compounds:
Cc1nc2ccccn2c1C(=O)NNS(=O)(=O)c1ccc(C(C)(C)C)cc1 was read as A549 viability -2%, Glioma ERSR ind -3%, Nrf2 inh 9.2µM*, Nrf2 activator -1%, miR-21 reporter 23% and TSG101-PTAP inh -5%.
O=C(Nc1cc(F)ccc1F)c1cnn2c1NC(=C1CC1)C=C2C(F)F was read as Glioma ERSR ind -3%.
`Cc1ccc(C(=O)C[n+]2cccc3cccc(O)c32)cc1` gave Glioma ERSR ind -4%.
`COc1ccc(C(=O)c2cc([N+](=O)[O-])ccc2N2CCCC2)cc1` gave A549 viability inconclusive, Glioma ERSR ind -3%, Nrf2 inh inconclusive, Nrf2 activator 0%, miR-21 reporter 21% and TSG101-PTAP inh 0%.

Bioassay records as filed in PubChem.
